According to published antibiotic growth screens (doi:10.1038/s41589-023-01349-8):
The other results are listed elsewhere or left out.

Each molecule was assayed on A. baumannii ATCC 17978 (assay: relative growth (fraction of control); higher = less inhibition). Details: 50 µM.
Work on `Clc1ccc(-c2cc[nH]n2)cc1` yielded a relative growth of 0.818. Molecule `C[C@H]1CN([C@@H](C)CO)S(=O)(=O)c2ccc(C#Cc3cccnc3)cc2O[C@H]1CN(C)C(=O)CN(C)C` has a relative growth of 1.07. `COc1ccc2c(C)cc(=O)oc2c1` was tested, and the relative growth was 0.956. With `O=C1OC(c2ccc(O)cc2)(c2ccc(O)cc2)c2ccccc21` the relative growth was 1.11. `COc1cc(C(=S)N2CCOCC2)ccc1O` was tested, and the relative growth was 1.05. With `COc1cc(OC)c2c(=O)cc(-c3ccccc3)oc2c1` the relative growth was 1.1. For `C[C@@H]1CN([C@@H](C)CO)S(=O)(=O)c2ccc(C#CCN(C)C)cc2O[C@H]1CN(C)C(=O)Nc1ccccc1F`, the relative growth was 0.976. Work on `CCS(=O)(=O)NCC[C@H]1CC[C@H](NC(=O)Cc2ccccn2)[C@@H](CO)O1` yielded a relative growth of 1.01. `CN(C)C(=O)C[C@H]1CC[C@@H](NC(=O)C2CC2)[C@H](CO)O1` showed a relative growth of 1.04. Molecule `COc1ccc(-c2ccccn2)cc1` has a relative growth of 0.889. Molecule `Nc1cccc(-n2cc(CCC(=O)NO)nn2)c1` has a relative growth of 1.09. `COc1cccc(S(=O)(=O)N[C@@H]2CC[C@H](CCn3cc(-c4ccccc4OC)nn3)O[C@@H]2CO)c1` gave a relative growth of 0.903. `O=C(CN1CCOCC1)NCC[C@H]1CC[C@H](NS(=O)(=O)c2ccc(Cl)cc2)[C@H](CO)O1` gave a relative growth of 1.09. `CCCCCCCCCCCCC[N+](C)(C)Cc1ccccc1.O.[Cl-]` gave a relative growth of 0.197. `CC(C)CC#Cc1ccc2c(c1)O[C@@H](CN(C)Cc1cncnc1)[C@@H](C)CN([C@@H](C)CO)S2(=O)=O` gave a relative growth of 0.815. `O=C1NCC(=O)N2[C@@H]1C[C@@H](C(=O)O)[C@H]2c1ccc(O)cc1` showed a relative growth of 0.959. `Cn1cnc(S(=O)(=O)N[C@@H]2CC[C@H](CC(=O)NCC3CC3)O[C@H]2CO)c1` was tested, and the relative growth was 0.97. Work on `CO[C@H]1CN(C)C(=O)c2ccc(NS(=O)(=O)c3ccccc3)cc2OC[C@H](C)N(C(=O)NC(C)C)C[C@H]1C` yielded a relative growth of 1.15. For `O=C(CN1CCOCC1)NCC[C@H]1CC[C@H](NS(=O)(=O)c2ccc(Cl)cc2)[C@@H](CO)O1`, the relative growth was 1.07. For `COc1cc(C)c(C(=O)O)c(O)c1`, the relative growth was 0.975. `C=CCNc1ncnc2c1cnn2C` showed a relative growth of 1.17. `CC(=C\c1ccccc1)/C(C)=N/O` gave a relative growth of 0.91. Molecule `Cc1cccc(S(=O)(=O)N2C[C@@H](O)COC[C@H]3O[C@H](CC(=O)NCc4ccc5c(c4)OCO5)CC[C@@H]32)c1` has a relative growth of 0.883. `CN(C)CC(=O)N[C@H]1CC[C@@H](CCNS(=O)(=O)c2ccccc2)O[C@@H]1CO` showed a relative growth of 0.983. Work on `CC(=O)Nc1c(O)[nH]c(SCC(=O)N2CCOCC2)nc1=O` yielded a relative growth of 1.08. Work on `COc1ccc(S(=O)(=O)N2CCO[C@@H]2CNC(=O)C(=O)NCc2ccncc2)cc1` yielded a relative growth of 1.01. With `COc1ccccc1C#Cc1cnc2c(c1)C(=O)N([C@@H](C)CO)C[C@H](C)[C@H](CN(C)C(=O)c1ccc3c(c1)OCO3)O2` the relative growth was 0.851. With `O=C(C[C@@H]1CC[C@H]2[C@@H](COC[C@H](O)CN2C(=O)c2ccncc2)O1)NC1CCC1` the relative growth was 0.981. `CCOC(=O)Nc1ccc(C)s1` was tested, and the relative growth was 0.965. Molecule `Nc1ccn(C2CSC(CO)O2)c(=O)n1` (configuration not stated) has a relative growth of 1.13. Molecule `Cc1c(Cl)cccc1Nc1ccccc1C(=O)O` has a relative growth of 0.942. In the case of `COC(=O)Cc1csc(CC(N)=O)n1`, the relative growth is reported as 1.04. Molecule `C[C@@H]1CN([C@@H](C)CO)S(=O)(=O)c2ccc(C#CC3CC3)cc2O[C@@H]1CN(C)Cc1ccc(F)cc1` has a relative growth of 1.13. In the case of `C=CCC[C@H](Cc1ccc(F)cc1)C(=O)O[C@@H](CNC(=O)[C@@H](CC=C)CC(=O)N[C@H](CO)Cc1ccccc1)c1ccccc1`, the relative growth is reported as 0.864. In the case of `CC(C)C[C@](O)(C(=O)OCc1ccc(O[C@@H]2O[C@H](CO)[C@@H](O)[C@H](O)[C@H]2O)cc1)[C@@H](O)C(=O)OCc1ccc(O[C@@H]2O[C@H](CO)[C@@H](O)[C@H](O)[C@H]2O)cc1`, the relative growth is reported as 0.997. Molecule `CC(CN)(Cc1ccccc1Cl)C(=O)O` (configuration not stated) has a relative growth of 1.01. For `CN1CCC(=C2c3ccccc3CCc3sccc32)CC1.O=C(O)CC(O)C(=O)O`, the relative growth was 0.975. Molecule `NC(=O)C1CCCN1C(=O)C(Cc1c[nH]cn1)NC(=O)C1CCC(=O)N1` (configuration not stated) has a relative growth of 1.14. `CCCCc1nc2ccccc2c(N)c1CC.O=C1O[C@H]([C@H](O)CO)[C@@H](O)C1=O` gave a relative growth of 0.853. For `CCNC(=O)C[C@@H]1CC[C@H](NC(=O)C2CC2)[C@H](CO)O1`, the relative growth was 0.909. Work on `N#C/C(=C\c1ccc(C(F)(F)F)cc1)c1c[nH]c2ccccc12` yielded a relative growth of 1.04. `COS(=O)(=O)[O-].COc1cc(N)cn[n+]1-c1ccccc1` showed a relative growth of 1.04. For `COc1ccccc1S(=O)(=O)N(C)C[C@H]1Oc2cc(C#CCC(C)C)ccc2S(=O)(=O)N([C@@H](C)CO)C[C@@H]1C`, the relative growth was 1.35. With `CC[C@H]1OC(=O)[C@H](C)[C@@H](O[C@H]2C[C@@](C)(OC)[C@@H](O)[C@H](C)O2)[C@H](C)[C@@H](O[C@@H]2O[C@H](C)C[C@H](N(C)C)[C@H]2O)[C@](C)(O)C[C@@H](C)C(=O)[C@H](C)[C@@H](O)[C@]1(C)O` the relative growth was 0.112. For `NCCSc1cc(C(F)(F)F)nc2ccccc12`, the relative growth was 1.03. `CC(C(=O)O)c1ccc(CC2CCCC2=O)cc1` (configuration not stated) showed a relative growth of 1.07. For `COC(=O)CSc1nc(=O)c(C)n[nH]1`, the relative growth was 0.967. `CN(C)CC#Cc1cncc(C(=O)NN)c1` was tested, and the relative growth was 0.946. Work on `C=CCNC(=O)[C@H]1[C@@H]2C(=O)O[C@@H](c3ccccc3)[C@@H](c3ccccc3)N2[C@@H](c2ccc(O)cc2)[C@]12C(=O)N(C(=O)OCCOC)c1ccc(C#CC3(O)CCCCCC3)cc12` yielded a relative growth of 0.997. With `O=C(Cc1ccccn1)NCC[C@H]1CC[C@H](NC(=O)CN2CCOCC2)[C@@H](CO)O1` the relative growth was 0.942. `CO[C@H](CN(C)S(=O)(=O)c1ccc(Cl)cc1)[C@@H](C)CN([C@@H](C)CO)S(=O)(=O)c1cccc(Cl)c1` gave a relative growth of 0.94. For `CNS(=O)(=O)c1cc(OC)ccc1OC`, the relative growth was 1.05. In the case of `CC1=C(/C=C/C(C)=C/C=C/C(C)=C/C=C/C=C(C)/C=C/C=C(C)/C=C/C2=C(C)CCCC2(C)C)C(C)(C)CCC1` [beta-CAROTENE [2mM]], the relative growth is reported as 0.976. Work on `CC(C)NC(=O)Nc1ccc2c(c1)C(=O)N([C@H](C)CO)C[C@@H](C)[C@H](CN(C)S(=O)(=O)c1ccc(Cl)cc1)O2` yielded a relative growth of 0.998. With `Cc1ccc(O)c(-c2cc(-c3ccc(C(C)(C)C)cc3)[nH]n2)c1` the relative growth was 0.936. With `Cc1ccc(S(=O)(=O)N2C[C@@H](O)COC[C@@H]3O[C@H](CC(=O)NCCCN(C)C)CC[C@H]32)cc1` the relative growth was 1.11. Molecule `O=C(C[C@@H]1C=C[C@H](NC(=O)CN2CCOCC2)[C@H](CO)O1)NCCc1ccccc1` has a relative growth of 1.16. For `CC(C)(C)OC(=O)NCc1nnc(N)[nH]1`, the relative growth was 0.958. `CCOC(=O)N(C)C[C@@H]1OCc2cn(nn2)CCCC(=O)N([C@@H](C)CO)C[C@H]1C` gave a relative growth of 0.886. Work on `CNC(=O)CN(CCN(CCN(CC(=O)[O-])CC(=O)NC)CC(=O)[O-])CC(=O)[O-].[Gd]` yielded a relative growth of 0.971. Molecule `C[C@H](NC(=O)C[C@@H]1CC[C@@H](NC(=O)CN2CCOCC2)[C@@H](CO)O1)c1ccccc1` has a relative growth of 0.988. `O=C(C[C@@H]1C=C[C@H](NC(=O)C2CC2)[C@@H](CO)O1)NCCCN1CCOCC1` showed a relative growth of 0.888. In the case of `CC1=CC(=O)[C@H]2C(C)(C)CCC[C@]2(C)[C@@]1(O)CCc1ccoc1`, the relative growth is reported as 1.01. For `COc1cccc2c1C(=O)c1c(O)c3c(c(O)c1C2=O)C[C@@](O)(C(=O)CO)C[C@@H]3O[C@H]1C[C@H](N)[C@@H](O)[C@H](C)O1.Cl`, the relative growth was 0.714. In the case of `CC(C)(Oc1ccc(CCNC(=O)c2ccc(Cl)cc2)cc1)C(=O)O`, the relative growth is reported as 0.942. For `C#C[C@]1(O)CCC2C3CCC4=CC(=O)CC[C@@H]4C3CC[C@@]21CC` (some centres not stated), the relative growth was 0.993. `O=C(Cc1ccncc1)Nc1ccc2c(c1)[C@@H]1C[C@@H](CC(=O)N3CCc4ccccc4C3)O[C@@H](CO)[C@@H]1O2` showed a relative growth of 0.969. Work on `O=C(O)CCc1nc(-c2ccccc2)c(-c2ccccc2)o1` yielded a relative growth of 1.03. `CNc1nc(OCC#N)nc(N2CCCCC2)n1` was tested, and the relative growth was 0.927. `O=C(C[C@@H]1CC[C@@H](NS(=O)(=O)c2ccccc2F)[C@@H](CO)O1)NCCCN1CCOCC1` showed a relative growth of 0.926. With `CC1(C)C=Cc2c(c3c(c4c(=O)c(-c5ccc(O)cc5)coc24)OC(C)(C)CC3)O1` the relative growth was 0.944. `Cc1sccc1-c1csc(N)n1` showed a relative growth of 0.935. With `CCN(CC)CCNC(=O)c1cc(Cl)c(N)cc1OC.Cl` the relative growth was 0.97. `CC(C)NC(=O)N(C)C[C@@H]1Oc2cc(-c3ccccc3F)ccc2S(=O)(=O)N([C@H](C)CO)C[C@@H]1C` was tested, and the relative growth was 0.945. `O=C1c2ccccc2C(=O)C1c1ccccc1` gave a relative growth of 1.11. Work on `NC[C@H](c1ccco1)N1CCN(c2ccc(F)cc2)CC1` yielded a relative growth of 1.04. In the case of `Clc1ccc2c(c1)C(N1CCNCC1)=Nc1ccccc1O2`, the relative growth is reported as 0.795. `O=C(O)C1CC([C@H]2CCCCN2)CN2CCCCC12` (some centres not stated) gave a relative growth of 1.09. `Oc1c(Br)cc(Br)c2cccnc12` showed a relative growth of 0.291. `COc1ccc(-c2coc3cc(O)ccc3c2=O)cc1` was tested, and the relative growth was 1.12. Work on `CN1CCN(c2cc3c(cc2F)c(=O)c(C(=O)O)cn3-c2ccc(F)cc2)CC1.Cl` yielded a relative growth of 0.163. Molecule `Cc1c(C(=O)O)c(O)cc2c1C(=O)c1c(O)c(C3O[C@H](CO)[C@@H](O)[C@H](O)[C@H]3O)c(O)c(O)c1C2=O` (some centres not stated) has a relative growth of 1.26. `CC(C)C(C)/C=C/C(C)C1CCC2C3=CC=C4CC(O)CCC4(C)C3CCC21C` (configuration not stated) gave a relative growth of 1.31. `CN1CCN(C(=O)C[C@@H]2CC[C@@H]3[C@H](COC[C@@H](O)CN3S(=O)(=O)c3cccc(Cl)c3)O2)CC1` gave a relative growth of 0.927. `C[C@@H]1COCC(=O)N1` showed a relative growth of 1.06. `C=CCOC(=O)[C@H]1[C@@H]2C(=O)O[C@@H](c3ccccc3)[C@@H](c3ccccc3)N2[C@@H](c2ccc(OCCOC(=O)[C@H]3C[C@H]4C(=O)NCC(=O)N4[C@H]3c3ccc(O)cc3)cc2)[C@]12C(=O)Nc1ccccc12` gave a relative growth of 0.996. `O=C(C[C@@H]1CC[C@H]2[C@@H](COC[C@@H](O)CN2C(=O)Nc2ccc(Cl)c(Cl)c2)O1)NCc1ccc(Cl)c(Cl)c1` showed a relative growth of 0.966.
